# Experimental data taken from PubChem BioAssay AID504634 (The Scripps Research Institute Molecular Screening Center, 2011).
# Chains of the proteins cited; added tags and fusions are not shown.
# UniProt P47898, whole entry, looked up: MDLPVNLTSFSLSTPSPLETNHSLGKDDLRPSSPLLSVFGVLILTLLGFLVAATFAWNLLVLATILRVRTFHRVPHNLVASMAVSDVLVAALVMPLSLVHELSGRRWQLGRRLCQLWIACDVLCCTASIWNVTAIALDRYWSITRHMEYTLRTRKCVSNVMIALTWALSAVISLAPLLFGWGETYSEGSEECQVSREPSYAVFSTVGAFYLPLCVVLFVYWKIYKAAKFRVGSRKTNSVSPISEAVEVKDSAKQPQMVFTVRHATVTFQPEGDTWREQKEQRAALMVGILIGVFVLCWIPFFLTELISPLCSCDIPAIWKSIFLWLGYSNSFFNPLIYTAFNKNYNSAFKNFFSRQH
# The entries are a selection whose mix differs from that of the whole data set. Activity calls are given as the source filed them. Rule as the data show it: active = inhibition mostly above about 23% (no sharp cut-off); inactive = mostly below about 18%.
# Molecular target: 5-hydroxytryptamine receptor 5A (Homo sapiens) (UniProt P47898)
# Assay: HTR5A inverse agonists in luminescence cell assay, primary screen, counter-screen for OPRM1-OPRD1 heterodimer inverse agonist project, full-deck HTS (AID 504634);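 also: 0% = cells with DMSO and 100% = no-cell wells with DMSO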
# Conditions: HTR5A cell line, inverse agonism, at 9.3 µM, stronger effect = higher value
row,SMILES,inhibition
1,Cc1nn(CC(=O)Nc2ccc3c(c2)nc2n3CCN(C3CCCCC3)C2)c(=O)c2ccccc12,inactive: 19.8%
2,Cc1noc(C)c1S(=O)(=O)N(CC(=O)N1CCn2c1nc1ccccc12)c1ccc(C(C)C)cc1,inactive: 4.93%
3,O=[N+]([O-])c1ccc(NC2CCN(Cc3ccccc3)CC2)c2ccncc12,inactive: -17.7%
4,CCOC(=O)N1CCN(c2c(NC3CCN(Cc4ccccc4)CC3)c(=O)c2=O)CC1,inactive: 9.41%
5,CC(C)Sc1nc2ccccc2n1CC(N)=O,inactive: 10.5%
6,O=C(Cn1cnc2ccccc21)N1CCN(S(=O)(=O)c2ccccc2)CC1,inactive: -6.16%
7,CN(C)C1(c2nnnn2-c2ccc(Cl)cc2)CCCCC1,inactive: -23.5%
8,O=[N+]([O-])c1cccc(NC2=NCC(CBr)S2)c1 (stereo not drawn),inactive: 2.19%
9,COc1ccc(Cc2nc3ccccc3n2CC(=O)N/N=C/c2ccc(O)cc2)cc1OC,inactive: 1.8%
10,COC(=O)C1(C)COP(=O)(Nc2ccccc2)OC1 (stereo not drawn),inactive: 1.27%
11,CCN(CC)S(=O)(=O)c1ccc(NC2CCN(Cc3ccccc3)CC2)nc1,inactive: -14.6%
12,O=S(=O)(Cc1ccccc1)N1CCn2c(nc3ccccc32)C1,inactive: 5.1%
13,CC1CCCN(Cc2nc3c(c(=O)n(C)c(=O)n3C)n2CC(N)=O)C1 (stereo not drawn),inactive: -19.1%
14,CN1CCN(c2nc3c(c(=O)n(C)c(=O)n3C)n2CC(N)=O)CC1,inactive: -15.2%
15,CSc1nc(N)nc2c1ncn2CC(=O)N1CCN(c2ccccn2)CC1,inactive: -1.07%
16,CCOc1ccc(NC(=O)CN(C)C(=O)Cn2cnc3c2c(=O)n(C)c(=O)n3C)cc1OCC,inactive: -8.65%
17,CC(C)C[C@H](NC(=O)N1CCn2c1nc1ccccc12)C(=O)NCC1CCCO1 (stereo partly drawn),inactive: -20.6%
18,O=[N+]([O-])c1ncn(CCn2ncnc2[N+](=O)[O-])n1,inactive: -9.13%
19,CCCn1c(=O)[nH]c(=O)c2c1nc(-c1ccc(OC(F)F)cc1)n2CCN1CCOCC1,inactive: 20.7%
20,Cn1c(=O)c2ncn(CC(=O)Nc3nc(-c4ccc(Cl)cc4)cs3)c2n(C)c1=O,inactive: -26.8%

row,SMILES,inhibition
1,CC(C)(C)NC(=O)Cn1c(SCC(=O)N2CCCCCC2)nc2ccccc21,inactive: -60.5%
2,CSCC[C@H](NC(=O)N1CCn2c1nc1ccccc12)C(=O)NCc1ccco1,inactive: -9.27%
3,Cc1ccc2c(c1)C1CN(C)CCC1N2C(=O)Nc1cccc(C(F)(F)F)c1 (stereo not drawn),inactive: 2.4%
4,Cn1c(=O)c2c(ncn2CC(=O)Nc2ccc(N3CCOCC3)cc2)n(C)c1=O,inactive: -11.1%
5,CSc1nc2ccccc2n1CC(=O)N1CCCCC1,inactive: 22.3%
6,CC(C)OC(=O)c1ccc(NC(=O)Cn2c(-c3nonc3N)nc3ccccc32)cc1,inactive: -29%
7,C/C(=N\NC(=O)Cn1c(-c2ccccn2)nc2ccccc21)c1ccccc1,inactive: 11.3%
8,O=[N+]([O-])c1ccc2c(c1)nc1n2CCN(CC2CCCO2)C1 (stereo not drawn),inactive: -24.1%
9,CN(C)C(=O)Cn1c(=O)n(S(=O)(=O)c2ccccc2)c2ccccc21,inactive: -12.8%
10,C/C(=N\NC(=O)Cn1cnc2ccccc21)c1cccs1,inactive: 17.5%
11,c1ccc(CN2CCC(Nc3ncnc4sccc34)CC2)cc1,inactive: -1.58%
12,CCCCc1nc2ccccc2n1CC(=O)NN,inactive: 2.82%
13,CSCC[C@H](NC(=O)N1CCn2c1nc1ccccc12)C(=O)N[C@@H](C(=O)O)c1ccccc1,inactive: -33.8%
14,CC(C)(C)C(=O)NC(Sc1ccncn1)C(Cl)(Cl)Cl (stereo not drawn),inactive: 7.66%
15,COc1ccc(CN(C)C(=O)Cn2cnc3c(NCc4ccccc4)ncnc32)cc1OC,inactive: 6.46%
16,CCN(Cc1ccccc1)C(=O)Cn1c(C(C)O)nc2ccccc21 (stereo not drawn),inactive: -24.3%
17,Cn1c(=O)c2c(ncn2CC(=O)NC(C)(C)C)n(C)c1=O,inactive: 0.11%
18,C[C@@H](NC(=O)Cn1cnc2c(NCc3ccccc3)ncnc21)c1cccc2ccccc12,inactive: -3.17%
19,CCCCOC(=O)Cn1c(=N)n(CCN(CC)CC)c2ccccc21,inactive: -1.08%
20,O=C(Cn1c(COc2ccccc2)nc2ccccc21)Nc1cccc(Cl)c1,inactive: 4.36%

row,SMILES,inhibition
1,Cc1cccc(NC(=O)Cn2c(=O)n(C)c3ccccc32)c1,inactive: 15.6%
2,COc1ccc(NC2CCN(C3CC(=O)N(c4ccc(F)c(Cl)c4)C3=O)CC2)cc1 (stereo not drawn),inactive: 7.99%
3,CN(C(=O)Cc1ccc(Cl)c(Cl)c1)[C@H]1CCCC[C@@H]1N1CCCC1,inactive: -47.8%
4,c1ccc(CN2CCC(Nc3nc(-c4cccs4)nc4ccccc34)CC2)cc1,inactive: 5.38%
5,Cc1ccc(NP(=O)(Oc2ccccc2F)Oc2ccccc2F)nc1,inactive: -4.84%
6,Cn1c(=O)c2c(ncn2CC(=O)Nc2nc3ccc(F)cc3s2)n(C)c1=O,inactive: -18.2%
7,CCOP(=O)(Nc1ccccc1)OCC,inactive: 10%
8,CCOc1ccc2nc(NC(=O)Cn3cnc4c3c(=O)n(C)c(=O)n4C)sc2c1,inactive: -4.25%
9,O=C(Cn1c(/C=C/c2ccccc2)nc2ccccc21)Nc1ccc(F)cc1,inactive: 11.8%
10,Cc1csc2c(NC3CCN(Cc4ccccc4)CC3)ncnc12,inactive: -9.48%
11,CCC(=O)Nc1nc2ccccc2n1CCN1CCOCC1,inactive: 10.7%
12,Cc1cccc(OCC(O)Cn2c(=N)n(CCN3CCOCC3)c3ccccc32)c1 (stereo not drawn),inactive: 15.3%
13,O=C(CSc1nc2ccccc2n1CC(=O)N1CCCC1)NCc1ccc2c(c1)OCO2,inactive: 8.06%
14,Cc1cc(SC(NC(=O)c2ccc(F)cc2)C(Cl)(Cl)Cl)ncn1 (stereo not drawn),inactive: 16.2%
15,COC(=O)C1=C(C)N=C2SCCC(=O)N2C1/C=C/c1ccccc1 (stereo not drawn),inactive: 3.14%
16,COC(=O)c1ccc(CNC(=O)Cn2cnc3c(OCc4ccccc4)ncnc32)cc1,inactive: -19.1%
17,CC1CCN(C(=O)Cn2c(SCC(=O)Nc3nccs3)nc3ccccc32)CC1,inactive: 5.46%
18,O=C(Cn1cnc2c(NCc3ccccc3)ncnc21)NCc1nc2ccccc2[nH]1,inactive: 5.79%
